{
  "source": "patent US8980905B2",
  "about": "“Benzodioxole or benzodioxepine heterocyclic compounds as phosphodiesterase inhibitors” (Leo Pharma A/S, priority 2010, dated 2015)",
  "assay": "In vivo pharmacokinetic analyses in rat",
  "details": "PO dosing 5 mg/kg of compound 101 from WO 2008/104175",
  "data": [
    {"smiles": "COc1ccc(C(=O)Cc2c(Cl)cncc2Cl)c2c1OC1(CCOCC1)O2", "values": [
      {"measurement": "Serum Cmax of the metabolite (R3=OH, compound 403)", "result": 2000, "unit": "ng/mL"}
    ]}
  ]
}
